The target of this assay is α4β7 (adhesion of RPMI cells to CS-1) (Homo sapiens, UniProt P13612+P26010). Briefly: RPMI-CS-1 cell adhesion assay. The class given is cell-based. Particulars: read-out: RPMI-CS-1 IC50 value range; adhesion of RPMI B-cell line (expresses α4β7) to CS-1 peptide coated microwells.

Sequences of proteins named here, by UniProt entry; tags and fusion partners are left off. Residues count along the entry.
UniProt P13612, 34-1032 limits assumed: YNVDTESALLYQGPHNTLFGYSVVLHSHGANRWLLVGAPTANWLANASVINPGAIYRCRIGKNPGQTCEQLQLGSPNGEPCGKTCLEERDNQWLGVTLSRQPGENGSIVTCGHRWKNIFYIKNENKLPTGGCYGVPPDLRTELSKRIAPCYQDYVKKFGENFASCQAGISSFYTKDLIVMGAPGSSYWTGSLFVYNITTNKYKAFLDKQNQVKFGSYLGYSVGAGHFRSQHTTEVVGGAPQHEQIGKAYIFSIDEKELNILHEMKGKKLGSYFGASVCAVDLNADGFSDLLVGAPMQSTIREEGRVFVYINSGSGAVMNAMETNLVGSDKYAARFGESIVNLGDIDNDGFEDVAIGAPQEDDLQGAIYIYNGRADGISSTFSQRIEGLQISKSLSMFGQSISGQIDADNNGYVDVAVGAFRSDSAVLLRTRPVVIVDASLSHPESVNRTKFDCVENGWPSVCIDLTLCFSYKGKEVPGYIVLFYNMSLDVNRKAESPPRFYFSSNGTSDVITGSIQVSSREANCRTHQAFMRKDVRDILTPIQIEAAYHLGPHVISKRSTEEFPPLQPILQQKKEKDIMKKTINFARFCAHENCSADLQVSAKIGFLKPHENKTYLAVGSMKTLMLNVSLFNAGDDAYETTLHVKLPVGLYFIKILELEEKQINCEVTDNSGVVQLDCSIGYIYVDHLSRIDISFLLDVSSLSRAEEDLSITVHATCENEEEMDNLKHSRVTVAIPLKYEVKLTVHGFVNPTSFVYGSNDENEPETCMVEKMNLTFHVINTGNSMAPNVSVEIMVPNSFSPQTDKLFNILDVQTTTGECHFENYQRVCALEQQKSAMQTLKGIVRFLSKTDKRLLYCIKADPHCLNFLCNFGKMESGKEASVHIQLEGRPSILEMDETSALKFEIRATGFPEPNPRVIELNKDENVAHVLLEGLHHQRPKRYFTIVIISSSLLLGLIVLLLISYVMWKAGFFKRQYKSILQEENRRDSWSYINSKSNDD
UniProt P26010, 20-798 limits assumed: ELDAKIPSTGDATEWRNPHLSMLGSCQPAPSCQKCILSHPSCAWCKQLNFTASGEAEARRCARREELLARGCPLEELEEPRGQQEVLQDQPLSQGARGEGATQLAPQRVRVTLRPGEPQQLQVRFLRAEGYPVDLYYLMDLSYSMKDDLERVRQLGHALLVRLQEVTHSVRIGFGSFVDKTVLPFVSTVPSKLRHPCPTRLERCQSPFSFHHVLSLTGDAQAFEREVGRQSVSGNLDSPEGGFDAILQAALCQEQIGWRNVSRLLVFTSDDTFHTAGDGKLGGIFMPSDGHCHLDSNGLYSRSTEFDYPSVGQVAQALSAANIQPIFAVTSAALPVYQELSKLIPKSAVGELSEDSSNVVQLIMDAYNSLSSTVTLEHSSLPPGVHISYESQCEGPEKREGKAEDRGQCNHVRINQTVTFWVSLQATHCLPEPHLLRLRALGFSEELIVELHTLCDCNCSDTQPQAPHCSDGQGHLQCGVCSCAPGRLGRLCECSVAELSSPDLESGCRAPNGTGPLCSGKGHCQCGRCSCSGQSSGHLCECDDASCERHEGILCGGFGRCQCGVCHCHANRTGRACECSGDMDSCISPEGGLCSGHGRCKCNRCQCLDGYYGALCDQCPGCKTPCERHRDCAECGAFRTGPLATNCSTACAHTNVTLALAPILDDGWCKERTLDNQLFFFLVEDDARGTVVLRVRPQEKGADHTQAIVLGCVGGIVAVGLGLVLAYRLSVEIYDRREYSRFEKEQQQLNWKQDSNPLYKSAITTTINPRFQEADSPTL

Where only a bound is given, the exact number is not on record here.

With `COc1cccc(OC)c1-c1ccc(C[C@H](NC(=O)c2c(Cl)cc(-c3ccsc3)cc2Cl)C(=O)O)cc1`, the IC50 (as a rule, the concentration that gives 50% inhibition) is below 300 nM.
To `COc1cccc(OC)c1-c1ccc(C[C@H](NC(=O)c2c(Cl)cc(-c3cscn3)cc2Cl)C(=O)O)cc1` [Example 307, N-[4-(1,3-Thiazol-4-yl)-2,6-dichlorobenzoyl]-4-(2,6-dimethoxyphenyl)-L-phenylalanine] belongs below 300 nM.

The values above are taken from patent publication US6855843B2, “Inhibitors of α4 mediated cell adhesion” (Tanabe Seiyaku Co., Ltd., priority 1998, dated 2005).
